Assay results as given in patent publication US5359138A (Zaidan Hojin Biseibutsu Kagaku Kenkyu KaI, priority 1989, dated 1994).

Chains of the proteins cited; added tags and fusions are not shown.
UniProt P23687, whole entry: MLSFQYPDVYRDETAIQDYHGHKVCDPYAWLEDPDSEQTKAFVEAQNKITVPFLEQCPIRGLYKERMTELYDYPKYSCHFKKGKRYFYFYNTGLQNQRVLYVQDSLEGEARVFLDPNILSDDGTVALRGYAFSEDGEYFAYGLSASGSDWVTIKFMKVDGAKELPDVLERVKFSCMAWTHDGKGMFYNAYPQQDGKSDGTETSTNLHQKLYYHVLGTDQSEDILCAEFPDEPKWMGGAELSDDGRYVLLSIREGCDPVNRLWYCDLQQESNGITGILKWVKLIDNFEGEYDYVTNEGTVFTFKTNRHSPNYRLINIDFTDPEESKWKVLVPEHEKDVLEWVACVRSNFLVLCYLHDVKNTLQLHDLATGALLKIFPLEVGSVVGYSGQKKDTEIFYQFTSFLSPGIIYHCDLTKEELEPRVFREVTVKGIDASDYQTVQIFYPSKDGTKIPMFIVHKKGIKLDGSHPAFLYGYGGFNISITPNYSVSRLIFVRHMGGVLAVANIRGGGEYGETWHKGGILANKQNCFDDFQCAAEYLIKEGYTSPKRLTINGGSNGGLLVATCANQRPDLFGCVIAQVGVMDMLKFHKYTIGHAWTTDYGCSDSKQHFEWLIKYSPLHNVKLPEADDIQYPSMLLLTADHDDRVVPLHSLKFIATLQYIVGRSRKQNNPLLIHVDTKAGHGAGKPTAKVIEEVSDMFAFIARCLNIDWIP

Columns and labels:
[1] = target: prolylendopeptidase (Sus scrofa, UniProt P23687); assay: Determination of anti-prolylendopeptidase activity; conditions: pig kidney enzyme, substrate Z-Gly-Pro-beta-naphthylamide, 37° C., 30 minutes, pH 7.8
Experimental: The determination of anti-prolylendopeptidase activity was conducted by a modified method based on the method by Yoshimoto et al (Biochim. Biophys. Acta, vol. 569, pages 184-192 (1979)).
A test tube was charged with a solution mixture consisting of (a) 0.2 ml of a solution of 0.5 mM N-benzyloxycarbonyl-L-glycyl-L-prolyl-beta-naphthylamide in 40% dioxane; (b) 0.5 ml of a 0.05M Tris-HCl buffer solution (pH 7.8); and (c) 0.25 ml of an aqueous solution containing the test material. The solution mixture was heated to 37° C. for 3 minutes, and admixed with 0.05 ml of a prolylendopeptidase solution to effect a reaction at 37° C. for 30 minutes. The prolylendopeptidase employed was that which had been obtained according to a modified method based on the enzyme purification method by Koida, Walter et al. (J. Biol. Chem. Vol. 251, pages 7593-7599 (1976), wherein a pig kidney sample was subjected to a fractionation operation with ammonium sulfate, and wherein a purification was effected by a column chromatography employing a DEAE-Sephadex A-50 column.
After the completion of the reaction, the reaction mixture was admixed with 1 ml of a 1M sodium acetate buffer solution containing 10% of Tween-20 and 0.1% of Fast Garnet GBC salt. The reaction mixture was allowed to stand at room temperature for 15 minutes, and then measured for the light absorption at 525 nm (a). At the same time, a control sample, which was free of the test compounds and contained only the buffer solution, was measured for the light absorption (b).
The prolylendopeptidase inhibition activity was determined by employing the formula: […]

[2] = target: cathepsin B (Homo sapiens, UniProt P07858); assay: Cathepsin B inhibition activity (method by Knight)
Experimental: The elastase inhibition activity was determined according to a method by Mumford, R. A. et al (J. Biol. Chem., 225, 2227 (1980)). The cathepsin B inhibition activity was determined according to a method by Knight, C. G. (Biochem. J., 189, 447-453 (1980)).

SMILES | PPCE = Propylendopeptidase inhibition activity, IC50 [1] [mg/L] | CatB = Cathepsin B inhibition activity, IC50 [2] [mg/L]
CCC(NC(=O)[C@@H](NC(=O)OCc1ccccc1)C(C)C)C(=O)C(=O)N[C@H](CC(C)C)C(=O)N[C@H](C(=O)O)C(C)C (stereo partly shown) | 0.065 | 1.4
CCC(NC(=O)[C@@H]1CCCN1C(=O)[C@@H](NC(=O)OCc1ccccc1)C(C)C)C(=O)C(=O)N[C@H](CC(C)C)C(=O)N[C@H](C(=O)O)C(C)C (stereo partly shown) | 0.05 | > 100
CCC(NC(=O)[C@@H](NC(=O)OCc1ccccc1)C(C)C)C(=O)C(=O)N[C@H](CC(C)C)C(=O)N[C@H](C(=O)OCc1ccccc1)C(C)C (stereo partly shown) | 0.05 | > 100
CCC(NC(=O)[C@@H](NC(=O)[C@@H](NC(=O)Cc1ccccc1)C(C)C)C(C)C)C(=O)C(=O)N[C@H](CC(C)C)C(=O)N[C@H](C(=O)O)C(C)C (stereo partly shown) | 0.022 | 1.5
CCC(NC(=O)[C@@H](NC(=O)[C@@H](NC(=O)OCc1ccccc1)C(C)C)C(C)C)C(=O)C(=O)N[C@@H](CC(C)C)C(=O)N[C@H](C(=O)O)C(C)C (stereo partly shown) | 2.2 | 0.03
CCC(NC(=O)[C@@H](NC(=O)[C@@H](NC(=O)CCc1ccccc1)C(C)C)C(C)C)C(=O)C(=O)N[C@H](CC(C)C)C(=O)N[C@H](C(=O)O)C(C)C (stereo partly shown) | 0.025 | 2.1
CCC(NC(=O)[C@@H]1CCCN1C(=O)OCc1ccccc1)C(=O)C(=O)N[C@H](CC(C)C)C(=O)N[C@H](C(=O)O)C(C)C (stereo partly shown) | 0.02 | 120
CC(C)C[C@@H](NC(=O)C(=O)C(C)NC(=O)[C@@H](NC(=O)[C@@H](NC(=O)OCc1ccccc1)C(C)C)C(C)C)C(=O)N[C@H](C(=O)O)C(C)C (stereo partly shown) | 0.03 | 4.2
CCC(NC(=O)[C@@H](NC(=O)[C@@H](NC(=O)OCc1ccccc1)C(C)C)C(C)C)C(=O)C(=O)N[C@H](CC(C)C)C(=O)N[C@H](C(=O)O)C(C)C (stereo partly shown) | 0.034 | 1.1
CC[C@H](NC(=O)[C@@H](NC(=O)[C@H](CCCCN)NC(=O)OCc1ccccc1)C(C)C)C(=O)C(=O)N[C@H](CC(C)C)C(=O)N[C@H](C(=O)O)C(C)C | 0.03 | 0.65
CCC(NC(=O)[C@@H](NC(=O)[C@@H](NC(=O)OCc1ccccc1)C(C)C)C(C)C)C(=O)C(=O)N[C@H](CC(C)C)C(=O)N[C@H](C(=O)OC)C(C)C (stereo partly shown) | 0.34 | 92
CCC(NC(=O)[C@@H](NC(=O)[C@H](CC(=O)O)NC(=O)OCc1ccccc1)C(C)C)C(=O)C(=O)N[C@H](CC(C)C)C(=O)N[C@H](C(=O)O)C(C)C (stereo partly shown) | 0.39 | 6.3
CCC(NC(=O)[C@@H](NC(=O)[C@@H](NC(=O)CCCc1ccccc1)C(C)C)C(C)C)C(=O)C(=O)N[C@H](CC(C)C)C(=O)N[C@H](C(=O)O)C(C)C (stereo partly shown) | 0.04 | 1.1

The next lines start with the values.

PPCE = Propylendopeptidase inhibition activity, IC50 [1] [mg/L] | CatB = Cathepsin B inhibition activity, IC50 [2] [mg/L] | SMILES
1.3 | 0.03 | CCC(NC(=O)[C@@H](NC(=O)[C@@H](N)C(C)C)C(C)C)C(=O)C(=O)NCC(=O)N[C@H](C(=O)O)C(C)C (stereo partly shown)
0.27 | 8.5 | CCC(NC(=O)[C@@H](NC(=O)[C@@H](N)C(C)C)[C@@H](C)O)C(=O)C(=O)N[C@H](CC(C)C)C(=O)N[C@H](C(=O)O)C(C)C (stereo partly shown)
0.38 | 1.4 | CCCC(NC(=O)[C@@H](NC(=O)[C@@H](N)C(C)C)C(C)C)C(=O)C(=O)N[C@H](CC(C)C)C(=O)N[C@H](C(=O)O)C(C)C (stereo partly shown)
0.07 | 1.4 | CCC(NC(=O)[C@@H](NC(=O)[C@@H](NC(=O)c1ccccc1)C(C)C)C(C)C)C(=O)C(=O)N[C@H](CC(C)C)C(=O)N[C@H](C(=O)O)C(C)C (stereo partly shown)
12 | 0.04 | CCC(NC(=O)[C@@H](NC(=O)[C@@H](N)C(C)C)C(C)C)C(=O)C(=O)N[C@@H](CC(C)C)C(=O)N[C@H](C(=O)O)C(C)C (stereo partly shown)
0.29 | 34 | CCC(NC(=O)[C@@H](NC(=O)[C@@H](N)C(C)C)C(C)C)C(=O)C(=O)N[C@H](CC(C)C)C(=O)N[C@H](C(=O)O)C(C)C (stereo partly shown)
0.05 | 9 | CC(C)C[C@@H](NC(=O)C(=O)C(C)NC(=O)[C@@H](NC(=O)[C@@H](N)C(C)C)C(C)C)C(=O)N[C@H](C(=O)O)C(C)C (stereo partly shown)
